From ChEMBL document CHEMBL5137086, “Discovery of 1-(Hetero)aryl-β-carboline Derivatives as IDO1/TDO Dual Inhibitors with Antidepressant Activity” (J Med Chem, 2022)

The chains behind the UniProt entries cited, without tags or fusion partners. Where a name states a change or a piece, a line headed by the entry shows the natural chain unless it says otherwise.
UniProt P48775: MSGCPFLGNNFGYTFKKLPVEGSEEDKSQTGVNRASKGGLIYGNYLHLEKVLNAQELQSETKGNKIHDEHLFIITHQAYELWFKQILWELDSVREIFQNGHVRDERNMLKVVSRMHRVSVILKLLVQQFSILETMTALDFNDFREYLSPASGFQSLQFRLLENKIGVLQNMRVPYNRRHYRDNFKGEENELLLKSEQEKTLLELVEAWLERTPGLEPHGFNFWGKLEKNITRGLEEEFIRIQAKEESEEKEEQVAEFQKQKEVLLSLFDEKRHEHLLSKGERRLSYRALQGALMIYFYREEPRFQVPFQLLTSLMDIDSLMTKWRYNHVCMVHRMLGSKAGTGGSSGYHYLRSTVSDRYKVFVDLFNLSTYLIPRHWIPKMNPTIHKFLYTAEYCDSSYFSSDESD

Target: Tryptophan 2,3-dioxygenase (Homo sapiens, UniProt P48775)
Test: Inhibition of TDO (unknown origin) assessed as reduction in N-formylkynurenine formation using L-tryptophan as substrate incubated for 75 mins by UV absorbance based analysis

Fc1ccc2c(/C=C/c3cccnc3)c[nH]c2c1
IC50: 350 nM
